# Measured affinities in a library of Ab-14 heavy chain variants

All variants were tested on one target, the spike HR2 peptide PDVDLGDISGINAS (SARS-CoV-2).

Parent scFv Ab-14: VH joined to VL by the linker GGGGSGGGGSGGGGS. Changes lie in the heavy chain CDRs alone.
VH: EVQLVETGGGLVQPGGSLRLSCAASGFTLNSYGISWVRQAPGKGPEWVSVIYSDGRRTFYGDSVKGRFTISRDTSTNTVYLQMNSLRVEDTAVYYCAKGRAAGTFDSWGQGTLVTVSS
VL: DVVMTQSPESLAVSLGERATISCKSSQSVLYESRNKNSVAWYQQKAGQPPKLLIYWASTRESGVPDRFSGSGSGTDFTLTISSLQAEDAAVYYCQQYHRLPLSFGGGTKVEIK

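AAYL49 was designed without a model: most single CDR substitutions and a random sample of double and triple ones. In AlphaSeq, yeast of one mating type display the scFv and yeast of the other type display the target. Binding brings cells together so that they mate, and sequencing counts the barcode pairs among the diploids. Read counts were normalised to the haploid input and turned into Kd by a linear fit to BCL2-family pairs of known affinity, for each replicate. Mating was done three times.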

The parent's heavy chain CDRs are GFTLNSYGIS, VIYSDGRRTFYGDSVK, GRAAGTFDS; each variant's own CDRs replace them letter for letter.
Numbers give log10(Kd / nM), so 0 is 1 nM and 3 is 1 µM. Smaller is tighter.
Replicates are averaged; those with no signal do not enter the mean.
A pair that was not seen in that replicate is written "n.d."; this usually means weak binding, but a binder can also be missed.
For reference, the parent read 0.65 as the reference entry and 4.11 (one replicate of three) as a member of this library.

| # | CDR-H1 | CDR-H2 | CDR-H3 | replicates, log10 nM | log10 Kd (nM), mean | signal with controls |
|---|---|---|---|---|---|---|
| 1 | GFTLNSYGIS | VIYSDGVRTFYGDIMK | GRAAGTFDS | n.d. / 2.49 / n.d. | 2.49 | 1 of 9 (3.94) |
| 2 | GFPLNSYGIS | VNYSDGRRIFYGDSVK | GRAAGTFDS | n.d. / 3.40 / 5.06 | 4.23 | 0 of 9 |
| 3 | GKTLNSGGIS | VIYSDGRRTFYGDSVK | GRAAGTSDS | n.d. / n.d. / n.d. | n.d. | 4 of 9 (3.89) |
| 4 | GFTLNSYGIS | VIYSDGRRTHYQDSVK | GRAAHTFDS | n.d. / n.d. / n.d. | n.d. | 1 of 9 (3.71) |
| 5 | GFTLNVYGIS | VIYSDGWRTFYGDSVK | GRAAGTFDS | 3.54 / 2.81 / 3.24 | 3.19 | 1 of 9 (3.78) |
| 6 | GMELNSYGIS | VIYSDGRRTFYGDSVK | GSAAGTFDS | 0.91 / 1.05 / 1.01 | 0.99 | 1 of 9 (4.00) |
| 7 | GFTLNSYGIS | VIYSDGRRWFYGDSVK | GRAAGTFDS | n.d. / n.d. / n.d. | n.d. | 0 of 9 |
| 8 | GSTLNSYGIS | VIYSDGRRTFYGDSVK | GMAAGTFDS | 3.45 / 3.72 / 3.03 | 3.40 | 3 of 9 (4.24) |
| 9 | GFTLNSYHIS | VIYSDGRRTFYHDSVK | GRAAGTFDS | n.d. / n.d. / n.d. | n.d. | 1 of 9 (3.00) |
| 10 | GFTLNSYQIS | VIYCDGRRTFYGGSVK | GRAAGTFDS | n.d. / 3.30 / n.d. | 3.30 | 1 of 9 (3.50) |
| 11 | GFTLFSLGIS | VIYSDGRRTFYGDSVK | SRAAGTFDS | n.d. / n.d. / n.d. | n.d. | 3 of 9 (3.82) |
| 12 | GFTLNSTGIS | VIYSDGRRTGYGDSVK | GRAATTFDS | 5.91 / 4.89 / 4.11 | 4.97 | 3 of 9 (4.71) |
| 13 | GFTLNSYGSS | VIYMDGRRTKYGDSVK | GRAAGTFDS | n.d. / 3.09 / n.d. | 3.09 | 1 of 9 (2.71) |
| 14 | GFTLNSYGYT | VIYSDGRRTFYGDMVK | GRAAGTFDS | n.d. / n.d. / n.d. | n.d. | 0 of 9 |
| 15 | GFTLNSHGIS | VIYSDGRRTFHGDSVK | RRAAGTFDS | 4.65 / n.d. / n.d. | 4.65 | 3 of 9 (4.84) |
| 16 | GFFLNSYGIS | VRYSDGRRTFYGDSVK | GRNAGTFDS | n.d. / 2.95 / 4.24 | 3.59 | 5 of 9 (4.10) |
| 17 | GITNNSYGIS | NIYSDGRRTFYGDSVK | GRAAGTFDS | n.d. / n.d. / n.d. | n.d. | 0 of 9 |
| 18 | GDTLNAYGIS | VIYSDGRRTFYGRSVK | GRAAGTFDS | 2.14 / 2.26 / 2.37 | 2.26 | 1 of 9 (3.11) |
| 19 | GFTLDSYGIS | VIYSDGRRTPYGDSVK | GREAGTFDS | 6.22 / 2.59 / 5.28 | 4.70 | 4 of 9 (4.23) |
| 20 | GFTLNSYGIS | VIYSCGRRTFYGDSVK | MGAAGTFDS | n.d. / n.d. / n.d. | n.d. | 1 of 9 (3.70) |
| 21 | YFTLNSYGIS | VIYSDGRRTFYGDSVK | GRAAGTFGS | 2.68 / n.d. / 2.51 | 2.60 | 0 of 9 |
| 22 | HLTLNSYGIS | VIYSDGRRTRYGDSVK | GRAAGTFDS | n.d. / n.d. / n.d. | n.d. | 1 of 9 (4.28) |
| 23 | GFTLNSYGIS | VILSNGRRTFYGDQVK | GRAAGTFDS | n.d. / n.d. / 4.67 | 4.67 | 2 of 9 (3.99) |
| 24 | GFTLNSYGIS | VIYSDGRRCFNGDSVK | GRAAGTFDV | 5.33 / 3.35 / n.d. | 4.34 | 3 of 9 (4.58) |
| 25 | GFTINSYGIS | VTYSDGRRTFYGDSVK | GPAAGTFDS | n.d. / 3.17 / n.d. | 3.17 | 1 of 9 (4.87) |
| 26 | GFTLNSYGIS | VIYSSGGRTFYGDAVK | GRAAGTFDS | n.d. / n.d. / n.d. | n.d. | 2 of 9 (4.34) |
| 27 | GFTLNSYGIS | VIYSDGRRTFYGDSVW | GRAAGCCDS | 2.80 / 2.36 / 2.28 | 2.48 | 4 of 9 (3.93) |
| 28 | GFTLNSYGWS | VIYSDGRRTFYGSSVK | GYAAGTFDS | n.d. / n.d. / n.d. | n.d. | 0 of 9 |
| 29 | GFTLNSYNIS | VIYSDGRRTFYGDSVK | IRAAGFFDS | n.d. / n.d. / n.d. | n.d. | 0 of 9 |
| 30 | GFTLNGYGNS | VIYSDGRRTFYGDSFK | GRAAGTFDS | n.d. / n.d. / n.d. | n.d. | 0 of 9 |
| 31 | GFTLNSCGIS | VIYSDGRRTFEGDSVK | GRAAGTFSS | n.d. / n.d. / n.d. | n.d. | 2 of 9 (3.88) |
| 32 | GFTLNSYGIS | VIYADGRRPFYLDSVK | GRAAGTFDS | 1.40 / 1.48 / 1.58 | 1.49 | 3 of 9 (4.55) |
| 33 | GFTLNAYGIR | VIYSDGRRTFYGDSVK | GRAAGTTDS | n.d. / n.d. / n.d. | n.d. | 0 of 9 |
| 34 | GFTINSYGIS | VIFSMGRRTFYGDSVK | GRAAGTFDS | n.d. / n.d. / n.d. | n.d. | 1 of 9 (3.02) |
| 35 | GFTLNSYGTS | VIYSIGRRTFYGDSVK | GRAAGTFAS | n.d. / 2.83 / n.d. | 2.83 | 1 of 9 (3.81) |
| 36 | GFTLNSYGIS | VIYSDGRRTTYGDSVK | GRAAGNLDS | n.d. / 2.20 / 3.00 | 2.60 | 0 of 9 |
| 37 | GFNLNSYGIS | VIYSRGRRPFYGDSVK | GRAAGTFDS | n.d. / 4.01 / 2.15 | 3.08 | 0 of 9 |
| 38 | GFTLNSYGIP | RIYSDGRRTFYGDSVN | GRAAGTFDS | n.d. / n.d. / n.d. | n.d. | 0 of 9 |
| 39 | GFYLNSYGIS | HIYGDGRRTFYGDSVK | GRAAGTFDS | n.d. / n.d. / n.d. | n.d. | 0 of 9 |
| 40 | GFCLNSYGIS | VYYSDGRRTFYGYSVK | GRAAGTFDS | n.d. / 4.50 / n.d. | 4.50 | 3 of 9 (4.24) |
| 41 | GFTLDSYGIS | VIYSDGRRTFYGDHVK | GRAAGWFDS | n.d. / n.d. / n.d. | n.d. | 0 of 9 |
| 42 | GFTLNSYGID | VIYSDGRRTFYGDSVK | WRYAGTFDS | n.d. / n.d. / n.d. | n.d. | 0 of 9 |
| 43 | GFTLWSYGIS | VIYSHGRRTFYGDSVK | GCAAGTFDS | n.d. / n.d. / n.d. | n.d. | 0 of 9 |

Picked from the list: the 4 lowest averages where every replicate gave a value.

CDR-H1	CDR-H2	CDR-H3	replicates, log10 nM	log10 Kd (nM), mean	signal with controls
GMELNSYGIS	VIYSDGRRTFYGDSVK	GSAAGTFDS	0.91 / 1.05 / 1.01	0.99	1 of 9 (4.00)
GFTLNSYGIS	VIYADGRRPFYLDSVK	GRAAGTFDS	1.40 / 1.48 / 1.58	1.49	3 of 9 (4.55)
GDTLNAYGIS	VIYSDGRRTFYGRSVK	GRAAGTFDS	2.14 / 2.26 / 2.37	2.26	1 of 9 (3.11)
GFTLNSYGIS	VIYSDGRRTFYGDSVW	GRAAGCCDS	2.80 / 2.36 / 2.28	2.48	4 of 9 (3.93)

As a blank, each scFv also met three strains without target: over library AAYL49, 15% of these pairings were detected, typically at 4.06 and seldom below 2.83. The control count says in how many pairings with the empty strains this scFv gave a signal, with their mean in brackets.

Values reported by Engelhart et al. 2022, doi:10.1038/s41597-022-01779-4 (FLAb copy).